The assay has as its target human EP2 receptor (Homo sapiens (Human), UniProt P43116). The assay can be described thus: Measurement of EP2 receptor binding affinity ([3H]PGE2 displacement, membrane fraction of HEK293 cells). The settings on record: PGE2 receptor selectivity, Table 4. How it is done: Measurement of EP2 receptor binding affinity was carried out according to the method of Abramovitz et al. (Biochimica et Biophysica Acta, 1483, 285 (2000)). […] The membrane fraction was recovered on glass fiber filter paper (GF/B, available from Whatman PLC) using a cell harvester (M30R, available from Brandel Inc.), and after washing with a buffer solution (10 mM MES-KOH (pH 6.0), 10 mM MgCl2), radioactivity was measured with a liquid scintillation analyzer (2000CA, available from Packard). […] The dissociation constant (Kd value) was calculated by Scatchard analysis. Incidentally, Compound A shown in the table is a sodium salt of {3-[(4-tert-butylbenzyl)(pyridin-3-ylsulfonyl)aminomethyl]phenoxy}-acetic acid (CP-533,536), which is a compound of Example 14e of WO 99/19300A, and is a control compound having EP2 receptor binding affinity.

By UniProt entry, the sequences of proteins in these tests, tags left out. Where a name states a change or a piece, a line headed by the entry shows the natural chain unless it says otherwise.
UniProt P43116: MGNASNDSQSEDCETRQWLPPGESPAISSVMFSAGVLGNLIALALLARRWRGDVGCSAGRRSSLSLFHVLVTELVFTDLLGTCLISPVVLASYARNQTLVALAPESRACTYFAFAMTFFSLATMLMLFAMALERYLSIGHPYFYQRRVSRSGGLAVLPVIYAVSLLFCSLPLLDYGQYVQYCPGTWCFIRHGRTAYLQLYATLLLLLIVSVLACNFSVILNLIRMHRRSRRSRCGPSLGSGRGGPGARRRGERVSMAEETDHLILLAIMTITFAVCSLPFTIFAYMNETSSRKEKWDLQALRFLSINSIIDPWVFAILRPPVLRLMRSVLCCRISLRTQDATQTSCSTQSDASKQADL

This is an account of results in US8685986B2, “Medical composition for treatment or prophylaxis of glaucoma” (Ube Industries, Ltd., priority 2009, dated 2014).

Each structure is given as a SMILES string.

As for `CCCCC[C@H](O)/C=C/[C@H]1[C@H](O)CC(=O)[C@@H]1C/C=C\CCCC(=O)O` [PGE2, reference compound], the Ki worked out at 7.1 nM.
